Data as given in US12286452B2, “Amphiphilic aminoglycoside connexin hemichannel inhibitors” (Texas Tech University System, priority 2018, dated 2025).

The chains behind the UniProt entries cited, without tags or fusion partners.
UniProt P17302, whole entry: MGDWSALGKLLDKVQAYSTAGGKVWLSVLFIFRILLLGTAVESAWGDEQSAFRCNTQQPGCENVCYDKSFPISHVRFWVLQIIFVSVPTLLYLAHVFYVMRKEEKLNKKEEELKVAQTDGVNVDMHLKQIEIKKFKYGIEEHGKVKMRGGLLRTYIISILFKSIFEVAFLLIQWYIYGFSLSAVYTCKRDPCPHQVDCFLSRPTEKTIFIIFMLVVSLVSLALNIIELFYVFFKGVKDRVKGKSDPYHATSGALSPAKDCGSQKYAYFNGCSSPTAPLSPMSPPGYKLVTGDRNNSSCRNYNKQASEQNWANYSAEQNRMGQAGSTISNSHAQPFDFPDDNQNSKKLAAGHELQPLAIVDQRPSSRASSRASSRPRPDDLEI

Molecular target: T1, Cx43 HCs (Homo sapiens, UniProt P17302)
T1 construct: expressed in transfected cells
Assay: Cx43-dependent growth complementation assay in E. coli LB2003
Assay type: cell-based
Conditions: Table 7

NCC1O[C@H](OC2C(N)CC(N)C(OC3O[C@H](CO)C(O)C(N)[C@H]3O)C2O)C(O)[C@@H](O)[C@@H]1O (stereo in doubt) [Kanamycin A, reference compound]
IC50: 48 ± 2 µM
